Measured values reported in US9120808B2 (NABRIVA THERAPEUTICS AG, priority 2009, dated 2015).

Protein sequences, listed by entry. Tags and fused reporters are not part of them. Lines headed by an entry give the natural chain unless they say otherwise; changes in a name come on top.
UniProt P0AD64: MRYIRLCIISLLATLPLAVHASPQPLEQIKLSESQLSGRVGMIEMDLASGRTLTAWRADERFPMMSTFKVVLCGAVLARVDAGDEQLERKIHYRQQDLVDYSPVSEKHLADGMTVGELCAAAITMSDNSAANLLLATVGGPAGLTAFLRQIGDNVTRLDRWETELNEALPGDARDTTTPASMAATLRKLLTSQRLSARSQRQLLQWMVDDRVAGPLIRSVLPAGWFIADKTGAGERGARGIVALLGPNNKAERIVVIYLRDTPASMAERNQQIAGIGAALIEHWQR

Biological target: SHV-1 β-lactamase (Klebsiella pneumoniae, UniProt P0AD64)
Assay: Cell-free β-lactamase inhibition study (nitrocefin hydrolysis)
Assay type: biochemical
Conditions: 10 min pre-incubation at 37° C., nitrocefin substrate
Description: Cell-Free-β-Lactamase Inhibition Study
Assays are performed with β-lactamases expressed in the pET system (Novagen, San Diego, Calif.) without signal peptides. They contain an N-terminal hexa-Histidine tag that is used for purification on Ni-NTA (Qiagen, Hilden, Germany). The compounds are prepared as 50 mM stocks in DMSO and diluted into buffer P1 (50 mM phosphate, pH 7) to a final concentration of 10% DMSO. All further dilutions are done in P2 (P1 with 10% DMSO). Enzyme and compound dilutions are pre-incubated for 10 min at 37° C. and the reaction is started with the addition of pre-warmed (37° C.) nitrocefin at a final concentration of […]. […] The initial velocity is determined and IC50 values are calculated using non-linear regression and sigmoidal dose response analysis with the PRISM 4.0 software (Graphpad Software Inc., San Diego, Calif.).

COC(=O)C1C(=C(C=O)C/C=C/c2ccccc2)O[C@@H]2CC(=O)N12 (stereo partly shown) [Example 13]
IC50: 47.7 nM
